# Binding of CDR-mutated scFvs to a peptide of the spike HR2 region

Data: MIT Lincoln Laboratory AlphaSeq set, Li et al. 2023, doi:10.1038/s41467-023-39022-2, as distributed in FLAb.

Target peptide (SARS-CoV-2 spike, HR2 region): PDVDLGDISGINAS

Each scFv is VH, a 15-residue (Gly4Ser)3 linker, VL, as in the parent Ab-14, and differs from it in the CDRs of the heavy chain only.
VH: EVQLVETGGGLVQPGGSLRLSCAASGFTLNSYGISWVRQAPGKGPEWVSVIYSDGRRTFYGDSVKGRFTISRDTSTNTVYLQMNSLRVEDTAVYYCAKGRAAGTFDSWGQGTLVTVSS
VL: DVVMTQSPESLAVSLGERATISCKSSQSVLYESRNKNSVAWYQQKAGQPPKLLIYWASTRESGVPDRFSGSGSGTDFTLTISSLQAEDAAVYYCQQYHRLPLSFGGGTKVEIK

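The parent was found by panning a naive human phage display library on the peptide. The variants were designed computationally from a first round of random CDR variants and then made and measured. Group labels follow the data file (Ctrl: baseline library sampled from a position-specific scoring matrix, with some repeated check sequences; Rand: our label for a block that the file lists under HC and that is probably the random mutants of the ten best first-round binders; GP: Gaussian process model; GPLM: also part of the Gaussian process libraries; HC: hill climbing; Gen: genetic algorithm; Gibbs: Gibbs sampling; a sequence that several methods proposed may carry one label only). In AlphaSeq, yeast of one mating type display the scFv and yeast of the other type display the target. The frequency of each diploid, read from paired DNA barcodes, reflects how well the two displayed proteins bind. Scores were corrected for input abundance and mapped to Kd with protein pairs of known affinity run in the same pool. Mating was done six times.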

Changes read parent residue, position, new residue, counted from the first residue of the VH shown. Variants here have at most six changes. Kd is apparent (estimated from mating counts) and averaged on the log scale over replicates with a signal. Smaller is tighter. An entry "nd" has no value in the source: the pair was not observed among the diploids in any replicate. This suggests poor binding but is not conclusive. In the paper, a design with two or fewer of six values counts as a poor binder.

With A101E+A102P+S107Q [Ctrl] the result was 38 nM (4 of 6 replicates; controls 0 of 18). The variant R56I+F59A+G61L+T104I [Ctrl] showed nd (0 of 6 replicates; controls 0 of 18). For T28E+S31T+R100E [GP_Gen], the assay gave nd (0 of 6 replicates; controls 0 of 18). For S31E+G99W+R100S [Ctrl], the assay gave 820 nM (2 of 6 replicates; controls 0 of 18). For R100H+A102P [Ctrl], the assay gave 140 nM (1 of 6 replicates; controls 0 of 18). For S63D+A101V+S107K [GP_Gibbs], the assay gave 240 nM (4 of 6 replicates; controls 0 of 18). The variant T28V+S31D+G61A+S63A+A101T [GP_Gibbs] showed 13 nM (5 of 6 replicates; controls 0 of 18). The variant F59Q+G61A+R100Q [GPLM_HC] showed 47 nM (4 of 6 replicates; controls 1 of 18). The variant R56L+T58E+G61A+R100P [Ctrl] showed nd (0 of 6 replicates; controls 0 of 18).

The variant F59A+R100N+A101H+A102S+G103A+T104F [Ctrl] gave 9.9 nM (6 of 6 replicates; controls 0 of 18). With T28N+G61K+S63K+R100Q [GP_Gibbs] the result was 14 nM (2 of 6 replicates; controls 0 of 18). With T28Q+S31E+S53A+R100V [GP_HC] the result was 210 pM (6 of 6 replicates; controls 0 of 18). The variant T28W+S31D+G61H+A101T+S107C [GP_Gibbs] showed nd (0 of 6 replicates; controls 0 of 18). The variant T28E+A101M [GPLM_Gibbs] gave 44 nM (6 of 6 replicates; controls 1 of 18). The variant S31A+A101N [Ctrl] showed 56 nM (4 of 6 replicates; controls 0 of 18). With S31E+G61T+A101M+D106T [GP_HC] the result was nd (0 of 6 replicates; controls 0 of 18). The variant S31Q+S53A+R100K [GP_HC] gave 2.4 nM (6 of 6 replicates; controls 0 of 18). For S31Q+G61A+A102K+T104F [Rand], the assay gave nd (0 of 6 replicates; controls 0 of 18).

The variant S31K+G61S+A102G [Rand] gave 34 nM (3 of 6 replicates; controls 0 of 18). The variant T28D+R100Q+S107T [GPLM_Gibbs] showed 1.5 nM (6 of 6 replicates; controls 1 of 18). The variant G26K+T28S+R100E [GPLM_Gen] gave 4.6 nM (6 of 6 replicates; controls 0 of 18). The variant F59H+T104N [Ctrl] showed nd (0 of 6 replicates; controls 0 of 18). For G61T+S63D+R100E [GPLM_Gibbs], the assay gave 13 nM (6 of 6 replicates; controls 0 of 18). The variant S31N+S63F [Ctrl] showed 24 nM (1 of 6 replicates; controls 0 of 18). With T28S+G61Q+S63N+R100E+A101T [GP_Gibbs] the result was 1.7 nM (6 of 6 replicates; controls 0 of 18). For T28P+A102P [Ctrl], the assay gave 120 nM (3 of 6 replicates; controls 3 of 18). With S31D+G61E+S63D+A101T [GP_HC] the result was 13 nM (5 of 6 replicates; controls 0 of 18).

For L29P+S31E+S35Q+R56E+Y60F [Ctrl], the assay gave 4.0 nM (1 of 6 replicates; controls 0 of 18). For F27V+K65E+R100L [Ctrl], the assay gave nd (0 of 6 replicates; controls 1 of 18). The variant T28E+G61A+A101E [GPLM_Gen] showed 430 pM (6 of 6 replicates; controls 0 of 18). The variant T28Q+G61Q+A101N [GP_Gibbs] showed 17 nM (3 of 6 replicates; controls 0 of 18). With G55Y+R56E [Ctrl] the result was nd (0 of 6 replicates; controls 0 of 18). For T28D+R56K+G61S+A101Q [GP_Gen], the assay gave 1.8 nM (6 of 6 replicates; controls 2 of 18). The variant T28Q+G61S+R100D [GPLM_HC] gave nd (0 of 6 replicates; controls 0 of 18). The variant T28W+S31D+G61I+S63H+R100K [GP_HC] gave nd (0 of 6 replicates; controls 0 of 18). For G61S+R100K+A102S+F105S [Ctrl], the assay gave nd (0 of 6 replicates; controls 0 of 18).

The variant D62P+A101I+T104M+F105W [Ctrl] gave nd (0 of 6 replicates; controls 0 of 18). For S31Q+S53A+F59A+T104S [Ctrl], the assay gave 960 pM (6 of 6 replicates; controls 1 of 18). The variant N30D+G61T+R100Q+A101L [GP_HC] showed 19 nM (6 of 6 replicates; controls 1 of 18). The variant T28D+G61S+S63Q+R100Q+A101T [GP_Gibbs] gave 1.4 nM (6 of 6 replicates; controls 0 of 18). The variant S63K+R100Y+A102G [Ctrl] showed nd (0 of 6 replicates; controls 0 of 18).

The last 5 entries again:

Variant D62P+A101I+T104M+F105W [Ctrl] showed nd (0 of 6 replicates; controls 0 of 18).
Variant S31Q+S53A+F59A+T104S [Ctrl] showed 960 pM (6 of 6 replicates; controls 1 of 18).
Variant N30D+G61T+R100Q+A101L [GP_HC] showed 19 nM (6 of 6 replicates; controls 1 of 18).
Variant T28D+G61S+S63Q+R100Q+A101T [GP_Gibbs] showed 1.4 nM (6 of 6 replicates; controls 0 of 18).
Variant S63K+R100Y+A102G [Ctrl] showed nd (0 of 6 replicates; controls 0 of 18).

Of ten entries with the parent sequence, four were seen in most replicates (averages 2.2 nM to 240 nM), three in one and three in none, so single entries are noisy. As a blank, each scFv also met three strains without target: over all heavy chain designs, 1% of these pairings were detected, typically at 120 nM and seldom below 7.0 nM. The control count says in how many pairings with the empty strains this scFv gave a signal. The range of this assay differs from that of the first round, and the authors advise against merging the two.